These results are taken from patent publication US11004539B2, “Predicting metabolic side effects of transported drugs” (The Regents of the University of California, priority 2016, dated 2021).

The target in the data set is T1, OAT3 (Mus musculus, UniProt O88909).
T1 sequence (O88909 1-537): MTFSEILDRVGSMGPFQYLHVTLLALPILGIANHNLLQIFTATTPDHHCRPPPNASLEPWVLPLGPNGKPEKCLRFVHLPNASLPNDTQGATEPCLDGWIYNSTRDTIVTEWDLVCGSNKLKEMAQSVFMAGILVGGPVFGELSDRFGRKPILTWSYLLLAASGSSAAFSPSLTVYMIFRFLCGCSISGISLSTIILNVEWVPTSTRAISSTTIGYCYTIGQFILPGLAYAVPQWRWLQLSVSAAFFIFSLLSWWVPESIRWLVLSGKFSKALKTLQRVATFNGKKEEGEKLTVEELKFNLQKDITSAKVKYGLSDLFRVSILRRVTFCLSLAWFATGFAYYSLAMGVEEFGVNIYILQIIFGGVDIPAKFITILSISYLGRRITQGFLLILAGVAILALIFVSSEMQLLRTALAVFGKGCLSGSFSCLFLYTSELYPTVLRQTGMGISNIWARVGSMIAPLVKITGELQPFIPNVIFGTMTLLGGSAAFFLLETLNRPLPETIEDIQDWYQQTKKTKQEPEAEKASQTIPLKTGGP
Nature of the data set: Plasma metabolomics profiling of Oat3KO versus wild-type mice. Particulars: Oat3KO vs wild type mice.

With gentisate, the “change in plasma of the Oat3KO” value was “significantly increased”.
